Measurements taken from article PMC6155837, “Design, Synthesis, and Biological Evaluation of a New Series of Biphenyl/Bibenzyl Derivatives Functioning as Dual Inhibitors of Acetylcholinesterase and Butyrylcholinesterase” (Molecules : A Journal of Synthetic Chemistry and Natural …, 2017).

Chains of the proteins cited; added tags and fusions are not shown. Residues count along the entry.
UniProt P06276, 29-602: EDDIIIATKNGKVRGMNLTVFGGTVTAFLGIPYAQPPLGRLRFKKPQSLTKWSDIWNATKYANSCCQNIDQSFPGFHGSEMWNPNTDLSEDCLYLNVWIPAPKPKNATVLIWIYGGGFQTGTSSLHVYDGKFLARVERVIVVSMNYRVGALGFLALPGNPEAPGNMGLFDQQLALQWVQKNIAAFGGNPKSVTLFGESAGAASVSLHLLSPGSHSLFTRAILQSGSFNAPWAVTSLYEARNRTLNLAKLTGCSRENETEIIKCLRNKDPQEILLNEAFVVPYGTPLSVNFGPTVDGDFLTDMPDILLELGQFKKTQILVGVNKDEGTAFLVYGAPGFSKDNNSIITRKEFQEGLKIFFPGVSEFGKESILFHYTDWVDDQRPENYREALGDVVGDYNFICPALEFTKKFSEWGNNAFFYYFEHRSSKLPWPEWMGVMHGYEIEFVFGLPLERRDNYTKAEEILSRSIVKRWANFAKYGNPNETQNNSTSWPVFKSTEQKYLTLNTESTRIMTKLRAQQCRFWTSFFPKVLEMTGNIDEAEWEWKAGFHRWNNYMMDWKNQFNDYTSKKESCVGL

Target: T1, BuChE (from human serum) (Homo sapiens, UniProt P06276)
T1 construct: human BuChE purified by human serum; from tissue; host or cells: human serum
Test: biochemical
Method: All of the assay of acetylcholinesterase (AChE) and butyrylcholinesterase (BuChE) were performed according to the method described by Ellman et al. using the rat AChE purified from the rat brain and human BuChE purified by human serum. In an enzymatic reaction medium contained different concentration of tested compounds and AChE suspended in the phosphate buffer solution at pH 7.2. After 30 min at room temperature, acetylthiocholine iodide and 5.5′-dithiobis-2-nitrobenzoic acid (DNTB) were added and the reaction mixture incubated at 37 °C for 60 min. […] The parallel control experiment was carried without tested compounds in the reaction mixture. For BuChE inhibitory assay, the procedure described above was followed except for the use of enzyme and substrate, instead of which butyrylcholinesterase and butyrylthiocholine chloride were used, respectively. Assays were done with a blank containing all compounds except AChE or BuChE in order to account for nonenzymatic reactions. Each inhibitory test was conducted in triplicate. […] Each concentration was assayed in triplicate and data were expressed as the mean ± SEM.

CC(C)NP(=O)(NC(C)C)OP(=O)(NC(C)C)NC(C)C [ISO-OMPA, tetraisopropyl-pyrophosph-oramide, reference compound]
IC50: 720 nM
